Laboratory results taken from ChEMBL document CHEMBL1123989, “Effects of addition of a 2-methyl group to ethyl nipecotates (beta-meperidines) on receptor affinities and opiate agonist/antagonist activities” (J Med Chem, 1988).

Protein sequences, listed by entry. Tags and fused reporters are not part of them. Lines headed by an entry give the natural chain unless they say otherwise; changes in a name come on top.
UniProt P41144: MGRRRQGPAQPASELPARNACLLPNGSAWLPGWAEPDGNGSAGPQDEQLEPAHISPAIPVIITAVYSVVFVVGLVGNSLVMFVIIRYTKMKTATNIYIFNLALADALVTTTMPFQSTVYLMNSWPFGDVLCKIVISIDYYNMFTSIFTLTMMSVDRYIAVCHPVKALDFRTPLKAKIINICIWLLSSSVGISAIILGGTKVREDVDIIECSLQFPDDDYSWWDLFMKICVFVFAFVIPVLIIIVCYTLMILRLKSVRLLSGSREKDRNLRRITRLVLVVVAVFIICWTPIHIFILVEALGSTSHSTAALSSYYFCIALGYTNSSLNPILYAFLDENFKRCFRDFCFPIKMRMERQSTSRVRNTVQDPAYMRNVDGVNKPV

Target: Kappa-type opioid receptor (Cavia porcellus, UniProt P41144)
Assay: Binding affinity at Opioid receptor kappa 1 in guinea pig brain membrane determined by using [3H]U-69593 as radioligand

With `CN(C(=O)Cc1ccccc1)[C@H]1CC[C@@]2(CCCO2)C[C@@H]1N1CCCC1` the Kd was 4.3 nM.
